SMILES strings stand for the structures. The list shows a part of the results, in another mix than the full data. Some of these compounds have results that are not shown, active ones among them. Activity calls are given as the source filed them.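 Rule for the calls: active = the 320 compounds with the highest percent inhibition in the single-dose primary screen, excluding strongly autofluorescent ones (cut at about 32% in these data); inactive = the rest, inconclusive results apart.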

The experiment relates to diphosphomevalonate decarboxylase (Streptococcus pneumoniae D39). Description: diphosphomevalonate decarboxylase activity blockers – biochemical, PK/LDH-coupled NADH fluorescence, primary screen (AID 556). The conditions noted are these: purified DPM-DC, at 10 µM.
For the compound `O=C(OC1CN2CCC1CC2)C(CO)(c1ccccc1)c1ccccc1` (configuration not stated), the compound was called inactive.

With `CN(C)c1cccc(C(=O)NCC2(N(C)C)CCCCC2)c1`, the call was inactive.

Source of the values: PubChem BioAssay AID556 (SRMLSC, 2006).
